This is a selection; strong and weak results do not stand in their true shares. Active and inactive are the calls of the source.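 How the source made its calls: active means activation factor of 2 or more at 20 µM; inactive means the rest.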
Biological target: Mannose-6-phosphate isomerase (Homo sapiens) (UniProt P34949)
Assay: human PMI activators, high substrate, primary screen, biochemical, fluorescence intensity, near-saturating mannose 6-phosphate (AID 1216)
Conditions: coupled PMI enzyme assay, resazurin fluorescence, 20 min, at 20 µM; stronger effect = higher value, 1 = untreated enzyme, 0 = substrate-free blank
In short: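 test system = human PMI in coupled enzyme assay | medium = HEPES-buffered pH 7.4 with magnesium and detergent | also added = 1.0 mM mannose-6-phosphate substrate with 0.22 mM NADP+ | compound = 20 µM single dose | times = 20 min incubation at room temperature | measured by = resorufin fluorescence (Ex 544/Em 590 nm) from resazurin via diaphorase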

Chains of the proteins cited; added tags and fusions are not shown.
UniProt P34949, whole entry: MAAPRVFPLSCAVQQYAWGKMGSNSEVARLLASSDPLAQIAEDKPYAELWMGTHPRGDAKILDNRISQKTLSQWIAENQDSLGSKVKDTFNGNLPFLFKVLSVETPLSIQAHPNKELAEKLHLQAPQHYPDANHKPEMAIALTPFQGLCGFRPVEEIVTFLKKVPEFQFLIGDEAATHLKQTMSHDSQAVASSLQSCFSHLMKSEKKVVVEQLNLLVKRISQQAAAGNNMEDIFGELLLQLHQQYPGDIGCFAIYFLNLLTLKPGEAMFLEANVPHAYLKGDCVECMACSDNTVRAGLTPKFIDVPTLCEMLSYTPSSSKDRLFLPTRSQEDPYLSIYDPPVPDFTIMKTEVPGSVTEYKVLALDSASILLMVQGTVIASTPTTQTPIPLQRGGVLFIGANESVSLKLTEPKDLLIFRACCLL

Compound | activation factor
CC1CCC(C(C)C)C(OP(=O)(Nc2ccccn2)c2ccccc2)C1 (stereo unspecified) | inactive
COc1cc(C2NCCC3(OCCO3)C2(C)C)cc(OC)c1OC.O=[N+]([O-])c1cc([N+](=O)[O-])c(O)c([N+](=O)[O-])c1 (stereo unspecified) | inactive
CCCOc1ccc(NP(C)(=O)Oc2ccc(Cl)cc2)cc1 (stereo unspecified) | inactive: 1
CP(=O)(Nc1ccc(SC(F)(F)F)cc1)Oc1ccccc1 (stereo unspecified) | inactive: 1
CN1CCCCC1COC(=O)C1(O)c2ccccc2CCc2ccccc21 (stereo unspecified) | inactive: 0.8
COc1ccccc1OP(C)(=O)Nc1c(C)cccc1C (stereo unspecified) | inactive: 1.1
Clc1n[nH]nc1-c1nn[nH][15n]1 | inactive
O=[N+]([O-])c1cc([N+](=O)[O-])c(-n2nnc3ccccc32)c([N+](=O)[O-])c1 | inactive: 1
O=P1(Nc2ccccn2)COc2ccccc2OC1 | inactive
CN(C(=O)Cc1ccc(Cl)c(Cl)c1)[C@@H]1CCCC[C@H]1N1CCCC1 | inactive
Cc1nc2ccc3ccccc3c2s1.O=[N+]([O-])c1cc([N+](=O)[O-])c(O)c([N+](=O)[O-])c1 | inactive: 0.8
Cc1cc(C)cc(OP(C)(=O)Nc2ccc(C)cc2C)c1 (stereo unspecified) | inactive: 1
Cc1cccc(OCC(=O)OC2CN3CCC2CC3)c1 (stereo unspecified) | inactive
CCOC(=O)c1ccc(NP(C)(=O)Oc2cc(C)cc(C)c2)cc1 (stereo unspecified) | inactive: 1
CCOP(=O)(Nc1cccc2ccccc12)OCC | inactive
Cc1cc(C)cc(OP(C)(=O)Nc2ccccn2)c1 (stereo unspecified) | inactive: 0.9
CP(=O)(Nc1cccc(Br)c1)Oc1ccccc1 (stereo unspecified) | inactive: 0.9
Cc1ccc(C)c(NP(C)(=O)Oc2ccccc2)c1 (stereo unspecified) | inactive: 1
O=P(Nc1nccs1)(Oc1ccccc1)Oc1ccccc1 | inactive
CCOP1(=S)c2c(C)nn(CCC#N)c2N=C(c2ccccc2F)N1C (stereo unspecified) | inactive
CCOP1(=S)c2c(C)nn(CCC#N)c2N=C(c2ccc(F)cc2)N1C (stereo unspecified) | inactive
CC1=NCCc2c1[nH]c1ccccc21.O=[N+]([O-])c1cc([N+](=O)[O-])c(O)c([N+](=O)[O-])c1 | inactive: 1

Compound | activation factor
Cc1cccc(C)c1OP(C)(N)=O (stereo unspecified) | inactive: 1.4
CC(C)(C)c1ccc(OP(C)(=O)Nc2ccc(SC(F)(F)F)cc2)cc1 (stereo unspecified) | inactive: 0.9
O=[N+]([O-])c1ccc2c(c1)C=Nc1ccccc1O2 | inactive: 0.4
Cc1ccc2nc3c(c(C)c2c1)CC(C(Cl)Cl)S3 (stereo unspecified) | inactive
COc1ccc(OP(C)(=O)Nc2cccc(F)c2)cc1 (stereo unspecified) | inactive: 1
COc1ccccc1OP(C)(=O)Nc1cc(Cl)ccc1C (stereo unspecified) | inactive: 1
CCN(CC)C(=S)SC(NC=O)C(Cl)(Cl)Cl (stereo unspecified) | inactive
Cc1cc(C)cc(OP(C)(N)=O)c1 (stereo unspecified) | inactive: 0.9
CCOC(=O)c1ccc(NP(C)(=O)Oc2ccccc2)cc1 (stereo unspecified) | inactive: 0.9
Cc1ccc(NP(C)(=O)Oc2ccccc2)c(C)c1 (stereo unspecified) | inactive: 1.1
COc1ccccc1OP(C)(=O)Nc1ccc(C)cc1 (stereo unspecified) | inactive: 0.9
COc1ccc2nc(NP(=O)(c3ccccc3)c3ccccc3)sc2c1 | inactive
Cc1c2c(nc3ccccc13)SC(C(Cl)Cl)C2 (stereo unspecified) | inactive
Cc1cc(=O)[nH]c(N[N+](=O)[O-])n1 | inactive
CCN(CC)CCCOC(=O)C(O)(c1ccccc1)c1ccccc1 | inactive: 1
COc1ccc(N/C(=N/P(=O)(N2CCOCC2)N2CCOCC2)N2CCOCC2)cc1 | inactive
Cc1cc(C)cc(OP(C)(=O)Nc2ccc(SC(F)(F)F)cc2)c1 (stereo unspecified) | inactive: 0.8
CP(=O)(NC(=O)Nc1ccccc1)Oc1ccccc1 (stereo unspecified) | inactive: 1
O=C(COc1ccccc1)OC1CN2CCC1CC2 (stereo unspecified) | inactive
CP(=O)(Oc1ccccc1)OC(c1ccccc1)C(F)(F)F (stereo unspecified) | inactive: 1
Cc1cccc(C)c1OP(C)(=O)Nc1ccc(SC(F)(F)F)cc1 (stereo unspecified) | inactive: 0.7
CP(=O)(Nc1ccccn1)Oc1ccc(Cl)cc1 (stereo unspecified) | inactive: 1

Compound | activation factor
CCOP(C)(=S)SCC(=O)NC(C)C(=O)O (stereo unspecified) | inactive: 0.9
CCOC(=O)c1ccc(NP(C)(=O)Oc2ccc(OC)cc2)cc1 (stereo unspecified) | inactive: 1.1
COc1ccccc1OP(C)(=O)Nc1ccccc1 (stereo unspecified) | inactive: 1
CP(=O)(Nc1ccccc1Br)Oc1ccccc1 (stereo unspecified) | inactive: 1
CP(=S)(Nn1cnnc1)Oc1ccccc1 (stereo unspecified) | inactive: 0.9
CP(=O)(OC12CC3CC(CC(C3)C1)C2)OC12CC3CC(CC(C3)C1)C2 | inactive: 1
CCOC(=O)c1ccc(NP(C)(=O)Oc2ccc(Cl)cc2)cc1 (stereo unspecified) | inactive: 1
CCc1ccc(OP(C)(=O)Nc2cccnc2)cc1 (stereo unspecified) | inactive: 1
CP(=O)(Oc1ccccc1)N1CCOC1=O (stereo unspecified) | inactive: 1
CC(=O)N1C2C3N(C(C)=O)C1C1N(C(C)=O)C(C(N1C(C)=O)N3C(C)=O)N2C(C)=O | inactive
COc1ccccc1OP(C)(=O)Nc1c(C)n(C)n(-c2ccccc2)c1=O (stereo unspecified) | inactive: 0.9
COc1ccc(OP(C)(=O)Nc2ccc(Br)cc2)cc1 (stereo unspecified) | inactive: 0.9
CCN(CC)CC(O)COC(=O)C(O)(c1ccccc1)C1CCCCC1 (stereo unspecified) | inactive
CC1CCN(C(=O)Oc2c(Cl)cc(Cl)c3cccnc23)CC1 | inactive
CN(C)C(=O)c1c([N+](=O)[O-])cc([N+](=O)[O-])cc1[N+](=O)[O-] | inactive: 0.5
CP(=O)(Nc1ccc(Cl)cc1)Oc1ccc(F)cc1 (stereo unspecified) | inactive: 1
CCN(/C(=N/P(=O)(N1CCOCC1)N1CCOCC1)N1CCOCC1)c1ccc(OC)cc1 | inactive
COc1ccccc1OP(C)(=O)Nc1ccccc1Br (stereo unspecified) | inactive: 1.1
CC(C)(C)c1ccc(OP(C)(=O)O)cc1 | inactive: 1
CN(C)CCOC(=O)C(O)(c1ccccc1)C1CCCC1 (stereo unspecified) | inactive: 1.1
COc1ccccc1OP(=O)(Nc1ccc(C)cn1)Oc1ccccc1OC | inactive
COc1ccc(OP(C)(=O)Nc2ccccn2)cc1 (stereo unspecified) | inactive: 0.9

Compound | activation factor
Cc1ccc(N/C(=N/P(=O)(N2CCOCC2)N2CCOCC2)N2CCOCC2)cc1 | inactive
NC(=O)c1cc([N+](=O)[O-])cc([N+](=O)[O-])c1N | inactive
CCc1ccc(OP(C)(=O)O)cc1 | inactive: 1
COc1ccccc1OP(C)(=O)Nc1ccc(C)cc1C (stereo unspecified) | inactive: 1
CP(=O)(Nc1ccccn1)Oc1ccccc1 (stereo unspecified) | inactive: 1
Oc1ccccc1CNc1ccccn1 | inactive
Cc1c(NP(C)(=O)Oc2ccc(C(C)C)cc2)c(=O)n(-c2ccccc2)n1C (stereo unspecified) | inactive: 1.2
O=[N+]([O-])c1cc([N+](=O)[O-])c(Nc2ccccn2)c([N+](=O)[O-])c1 | inactive: 0.3
CC(C)CC(=O)NC(Sc1ccc(Cl)cc1)C(Cl)(Cl)Cl (stereo unspecified) | inactive
COc1ccc(OP(C)(=O)Nc2ccccc2Br)cc1 (stereo unspecified) | inactive: 1.1
COc1ccccc1OP(C)(=O)Nc1ccc(C)c(C)c1 (stereo unspecified) | inactive: 1
CCOP(=O)(Nc1ccccc1)OCC | inactive
Cc1cc(C)cc(OP(C)(=O)Nc2cccc(C(F)(F)F)c2)c1 (stereo unspecified) | inactive: 0.9
CP(=O)(Nc1ccc(Cl)cc1Cl)Oc1ccccc1 (stereo unspecified) | inactive: 1
CP(=O)(OCCOc1ccccc1)OCCOc1ccccc1 | inactive: 0.9
Cc1nc2ccc3ccccc3c2o1.O=[N+]([O-])c1cc([N+](=O)[O-])c(O)c([N+](=O)[O-])c1 | inactive: 0.4
COc1ccc(OP(C)(=O)Nc2ccc(SC(F)(F)F)cc2)cc1 (stereo unspecified) | inactive: 1.1
CCOC(=O)c1ccc(NP(C)(=O)Oc2ccc(F)cc2)cc1 (stereo unspecified) | inactive: 1
CCOC(=O)NC(Sc1ccccc1)C(Cl)(Cl)Cl (stereo unspecified) | inactive
CP(=O)(Nc1ccccc1)Oc1ccc(F)cc1 (stereo unspecified) | inactive: 1.1
CCC(=O)N1C2C3N(C(=O)CC)C1C1N(C(=O)CC)C(C(N1C(=O)CC)N3C(=O)CC)N2C(=O)CC | inactive
CCN(CC)CCCOC(=O)C(O)(c1ccccc1)C1CCCCC1 (stereo unspecified) | inactive: 1.2

Compound | activation factor
COC(=O)c1cc2c(s1)N=C(c1ccccc1)N(C)P2(=O)N1CCOCC1 (stereo unspecified) | inactive
CC(C)c1ccc(OP(C)(=O)Nc2ccc(SC(F)(F)F)cc2)cc1 (stereo unspecified) | inactive: 0.8
CC(C)(C)C(=O)NC(Sc1ccccc1)C(Cl)(Cl)Cl (stereo unspecified) | inactive
CP(=O)(Nc1ccccc1F)Oc1ccccc1 (stereo unspecified) | inactive: 1
CCOc1ccc(C2=NCC(CBr)S2)cc1 (stereo unspecified) | inactive
CC(=O)Nc1ccc(Oc2c([N+](=O)[O-])cc([N+](=O)[O-])cc2[N+](=O)[O-])cc1 | inactive
O=C(OCCN1CCN(CCOCc2ccccc2)CC1)C(O)(c1ccccc1)c1ccccc1 | inactive: 1.3
c1nnnn1CCn1cnnn1 | inactive
CCOP(C)(=S)SCC(=O)NC(C)(CC)C(=O)O (stereo unspecified) | inactive: 0.8
CC(C)C(=O)NC(Sc1ccccc1)C(Cl)(Cl)Cl (stereo unspecified) | inactive
Cc1ccccc1NP(C)(=O)Nc1ccccc1C | inactive: 1
CP(=O)(Nc1ccc2c(c1)OCCO2)Oc1ccccc1 (stereo unspecified) | inactive: 1
COc1ccc(NP(C)(=O)Oc2ccccc2OC)cc1 (stereo unspecified) | inactive: 1.1
CN(C)CCOC(=O)C(O)(c1ccccc1)C1CCCCC1 (stereo unspecified) | inactive
O=P(Nc1ccccn1)(c1ccc(Br)cc1)c1ccc(Br)cc1 | inactive
COc1ccc(OP(C)(=O)Nc2cccc(Br)c2)cc1 (stereo unspecified) | inactive: 1
O=[N+]([O-])c1cc([N+](=O)[O-])c(NCC2CCS(=O)(=O)C2)c([N+](=O)[O-])c1 (stereo unspecified) | inactive: 0.6
CC(=O)NC(SC(=S)N(C)C)C(Cl)(Cl)Cl (stereo unspecified) | inactive

Reference: PubChem BioAssay AID1216 (Sanford-Burnham Center for Chemical Genomics, 2008)
